# Test results from PubChem BioAssay AID1224905 (ICCB-Longwood Screening Facility, Harvard Medical School, 2016).
# Amino acid sequences for entries named in this document (tags omitted).
# UniProt P08753, whole entry, looked up: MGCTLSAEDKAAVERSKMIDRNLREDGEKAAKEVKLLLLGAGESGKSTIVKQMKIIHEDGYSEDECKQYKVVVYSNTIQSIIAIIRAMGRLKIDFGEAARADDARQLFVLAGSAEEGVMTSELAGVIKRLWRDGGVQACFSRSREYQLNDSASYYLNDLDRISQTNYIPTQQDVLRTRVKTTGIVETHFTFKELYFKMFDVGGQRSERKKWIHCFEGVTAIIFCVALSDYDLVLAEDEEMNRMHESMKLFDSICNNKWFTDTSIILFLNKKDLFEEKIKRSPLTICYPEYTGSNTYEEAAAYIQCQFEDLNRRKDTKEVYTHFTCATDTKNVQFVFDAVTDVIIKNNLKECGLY
# In all, about 210,000 compounds went through this assay and about 880 (0.42%) were called active. For the sample, actives were picked, then their nearest neighbours and some compounds at random. Unmarked numbers belong to inactive results.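 The calls were made as follows: active = replicate mean at 85% of control or lower with very high polarization wells dropped (limit read from the data); inactive = the rest.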
# Molecular target: Guanine nucleotide-binding protein G(i) subunit alpha-3 (Rattus norvegicus) (UniProt P08753)
# Test: inhibitors of GIV peptide binding to Galpha-i3, primary screen, biochemical, fluorescence polarization, FITC-GIV GBA peptide, rat Galphai3 (AID 1224905)
# Conditions: 90 min, stronger effect = lower value, scaled: aluminum fluoride 0%, vehicle 100%
row,Compound,percent of control (FP)
1,Cn1nc(-c2ccccc2F)c2cc(C(=O)Oc3ccc4cnccc4c3)sc21,109%
2,N#CC1=C2Sc3ccccc3N2CC1=O,-54.5% (active)
3,CCOC(=O)c1[nH]c(=O)[nH]c1CSc1nnc(SCc2[nH]c(=O)[nH]c2C(=O)OCC)s1,118%
4,N#CSc1cc(SC#N)c(N)nc1N,16% (active)
5,COc1cccc(N/C(SCc2ccccc2C)=C(/C#N)C(=O)NCCc2ccc(OC)c(OC)c2)c1,104%
6,CCC(C)OC(=O)C1=C(C)NC(=O)NC1c1ccc(OC)c(OCc2ccccc2)c1 (stereo not given),99.4%
7,CCOc1cc(/C=C2/C(=O)N(c3nn[nH]n3)N=C2C)cc(Cl)c1OCC,74.3% (active)
8,CCOC(=O)c1ccc(N2N=C(C(F)(F)F)/C(=C/c3cc(Cl)c(O)c(OC)c3)C2=O)cc1,109%
9,COc1cc(C=C2C(=O)NC(=O)NC2=O)cc(Cl)c1OCCOc1ccc(C)cc1,103%
10,O=C(C1CCN(c2nc(-c3ccc(Cl)cc3)no2)CC1)N1CCC(N2CCCCC2)CC1,104%
11,CCSCCOC(=O)C1=C(C)N(C)C(=O)NC1c1ccccc1OCc1ccccc1 (stereo not given),104%
12,CC(=O)N(CCN(C)C)c1nc2cc3c(cc2s1)OCO3,100%
13,c1c2c(cc3sc(N4CCCCC4)nc13)OCCO2,101%
14,c1csc(Nc2nc3cc4c(cc3s2)OCO4)n1,-40.2% (active)
15,O=C(CCn1nnc2cc(S(=O)(=O)N3CCCC3)ccc21)N1CCN(c2ccccn2)CC1,112%
16,Cc1c(CNCCc2ccc(S(N)(=O)=O)cc2)c(C(=O)O)c(C)n1Cc1ccc(F)cc1,98.6%
17,CC1(C)C2CCC1(CS(=O)(=O)Nc1cc(C(=O)N3CCOCC3)ccc1N1CC3CC(C1)c1cccc(=O)n1C3)C(=O)C2 (stereo not given),106%
18,O=C(O)c1cc(N2C(=O)C3C4C=CC(CO)(O4)C3C2=O)ccc1Cl (stereo not given),103%
19,CCN(CC)c1ccc2cc(C(=O)NC(C)=O)c(=Nc3ccccc3OC)oc2c1,114%
20,CCN(CC)c1ccc2cc(C(N)=O)/c(=N\NC(=O)c3ccccc3)oc2c1,-46.7% (active)
21,CCN(CC)c1ccc2cc(C(=O)NC(C)=O)c(=Nc3ccc(F)cc3F)oc2c1,117%
22,O=S(=O)(NCc1ccco1)c1ccc(Cl)cc1,101%
23,Cc1ccc2ccc3cc(C(=O)NC4CCCC4)nc3c2[nH]1,112%
24,O=C1/C(=C/c2ccc([N+](=O)[O-])cc2)C=C(c2ccccc2)N1c1cccc(Cl)c1Cl,109%
25,COc1ccccc1N1C(=O)/C(=C/c2ccc(Cl)cc2)C=C1c1ccccc1,78.1% (active)
26,O=C1/C(=C/c2ccc(Br)cc2)C=C(c2ccccc2)N1c1ccccc1Br,119%
27,CC(C)NC(=O)C1=CC(c2ccco2)=NS(=O)(=O)N1C,107%
28,Cc1[nH]c(C(=O)Nc2ccc(F)cc2)c(C)c1S(=O)(=O)N1CCCC1,112%

row,Compound,percent of control (FP)
1,Cc1cc(C)nc(NS(=O)(=O)c2ccc(NC(=O)C(C)Oc3ccc(Cl)cc3Cl)cc2)n1 (stereo not given),111%
2,COc1ccc(C(=O)Oc2ccc(C(c3c(C)[nH]n(-c4ccccc4)c3=O)c3c(C)[nH]n(-c4ccccc4)c3=O)cc2)cc1,111%
3,CC1=NOC(=O)C1C(c1cccc(Br)c1)c1c(C)[nH]n(-c2ccccc2)c1=O (stereo not given),48.2% (active)
4,Cc1[nH]n(-c2ccccc2)c(=O)c1C(c1ccc(C(F)(F)F)cc1)c1c(C)[nH]n(-c2ccccc2)c1=O,92.3%
5,O=C(CSc1nnc2ccc(C(=O)NCc3ccccc3)cn12)Nc1ccccc1Br,95.4%
6,CC(=O)Nc1cccc(NC(=O)c2sc3ncn(CC(=O)Nc4ccc(C)c(Cl)c4)c(=O)c3c2C)c1,107%
7,CC1(C)CC(=O)C2=C(C1)OC1=C(C(=O)CC(C)(C)C1)C2c1ccc(Cl)cc1,107%
8,Cn1cc(S(=O)(=O)N2CCCCC2)cc1C(=O)N1CCc2ccccc2C1,107%
9,COC(=O)c1ccc(C2C(S(=O)(=O)c3ccccc3)=C(O)C(=O)N2c2cccc(C)c2)cc1 (stereo not given),101%
10,CCCCN1C(=O)C(C)(C(=O)N2CCN(C)CC2)Oc2cccnc21 (stereo not given),101%
11,O=C(CCN1CCOCC1)Nc1cc(C(=O)Nc2ccc(F)c(F)c2)ccc1N1CC2CC(C1)c1cccc(=O)n1C2 (stereo not given),115%
12,COC(=O)c1c(C)c(=O)[nH]c2ccccc12,102%
13,CCCCN(C)C(=O)CCn1c(=S)[nH]c2c(oc3ccccc32)c1=O,100%
14,O=C(O)c1c2ccccc2[nH]c2c1oc1cc(=O)ccc12,81.8% (active)
15,CCn1cc(CCN2CCN(S(=O)(=O)c3ccc4c(c3)CCC4)CC2)c2cccnc21,108%
16,CCN(Cc1ccccc1)C(=O)Cn1c(=O)n(CCc2ccccc2)c(=O)c2ccccc21,102%
17,O=S(=O)(c1cc(-c2noc(C3CC3)n2)cs1)N1CCN(c2ccc(Cl)cc2)CC1,104%
18,C=CCNc1ncccc1-c1nc(-c2ccc(Cl)cc2)no1,96.7%
19,CCOc1ccc(NC(=O)Nc2ccc(Cn3cnc(-c4nc(-c5ccc(Cl)cc5)no4)c3)cc2)cc1,102%
20,COC(=O)Cn1nc2c(-c3nc(-c4ccc(Cl)cc4)no3)cccn2c1=O,53.6% (active)
21,CCCCN(CC)C(=O)c1c[nH]c2ccc(S(=O)(=O)N(C)c3ccc(Br)cc3)cc2c1=O,97.2%
22,O=C1Nc2ccccc2O/C1=C\c1ccc(C(=O)NCc2ccco2)cc1,103%
23,CCOc1ccc(NC(=O)Nc2cccc(OCc3cc(=O)n4ccccc4n3)c2)cc1,100%
24,Cn1c(SCC(N)=O)nnc1-c1cc2ccccc2o1,98.6%
25,O=c1c(-c2cc3ccccc3o2)[n+]([O-])c2ccccc2n1O,9.86% (active)
26,COc1ccc2oc(=O)cc(-c3cc4ccccc4o3)c2c1,104%
27,Cc1ccc([N+](=O)[O-])cc1S(=O)(=O)n1c(SCc2ccccc2F)nc2ccccc21,104%
